Binding of CDR-mutated scFvs to a peptide of the spike HR2 region

The measurements come from Engelhart et al. 2022 (doi:10.1038/s41597-022-01779-4) through the FLAb antibody collection.

Target peptide (SARS-CoV-2 spike, HR2 region): PDVDLGDISGINAS

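In library AAYL52, one, two or three CDR residues were substituted; doubles and triples were drawn at random. In AlphaSeq, yeast of one mating type display the scFv and yeast of the other type display the target. Mating (16 h, 30 °C) was followed by selection of diploids and sequencing of their barcodes. Scores were corrected for input abundance and mapped to Kd with protein pairs of known affinity run in the same pool. Each pool was mated in three replicate cultures.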

Parent scFv Ab-95: VH joined to VL by a 15-residue (Gly4Ser)3 linker. Changes lie in the light chain CDRs alone.
VH: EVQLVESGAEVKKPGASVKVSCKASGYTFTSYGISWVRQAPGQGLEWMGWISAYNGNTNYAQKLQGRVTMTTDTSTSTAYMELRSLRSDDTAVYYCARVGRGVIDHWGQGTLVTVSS
VL: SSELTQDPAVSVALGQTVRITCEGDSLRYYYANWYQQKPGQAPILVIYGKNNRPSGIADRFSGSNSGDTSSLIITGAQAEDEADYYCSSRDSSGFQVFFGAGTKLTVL

Positions count from residue 1 of the parent VL; Y30W puts W in place of Y. Affinities are written as log10 Kd with Kd in nM; a lower number is a better binder. A mean of the replicates is given; it leaves out those without a signal. Where no diploid with the target was found in that replicate, the entry reads "n.d.": below detection, most likely a poor binder, though not proof of it.

changes	replicates, log10 nM	log10 Kd (nM), mean	control signals
Y30W/Y31Q/G49D	2.11 / 2.04 / 1.88	2.01	2/9 (3.76)
E23G/N33T/S92Q	4.01 / 4.87 / n.d.	4.44	6/9 (3.46)
L27Q/N33K/G49Q	3.86 / n.d. / n.d.	3.86	0/9
K50P/S93W/F98R	4.43 / 3.99 / 3.44	3.95	1/9 (5.23)
N33L/S93F	4.13 / 3.62 / n.d.	3.87	4/9 (4.01)
S26N/Y30R/K50V	1.82 / 1.89 / 1.55	1.75	0/9
Y31R/N52G/P54M	2.66 / 2.55 / 2.52	2.58	5/9 (4.34)
Y29A/R90T/S93P	2.07 / 2.04 / 1.81	1.97	3/9 (3.55)
D91T/S93W/F95W	4.67 / n.d. / n.d.	4.67	1/9 (5.06)
K50Y/S89G/F98H	2.80 / 2.99 / 3.21	3.00	4/9 (3.94)
Y31P/K50L	0.26 / 1.07 / 0.22	0.52	0/9
Y29T/D91T/G94W	3.95 / n.d. / n.d.	3.95	1/9 (4.78)
S26K/R28K/V97D	n.d. / 4.63 / 4.13	4.38	0/9
R53W/P54M	n.d. / 3.46 / n.d.	3.46	1/9 (3.86)
Y29R/Y31Q/K50V	1.69 / 1.62 / 1.18	1.50	7/9 (4.33)
G49C/K50Q/S93G	4.27 / 4.20 / n.d.	4.24	4/9 (3.70)
R28C/Y29S/V97F	3.76 / 3.40 / 3.47	3.54	3/9 (4.14)
S26M/S55P/R90N	3.00 / 3.52 / 3.81	3.44	6/9 (3.84)
G24Y/F95T/V97S	3.17 / 2.92 / n.d.	3.05	5/9 (4.36)
G24V/F98I	2.59 / 2.68 / 2.30	2.52	2/9 (3.42)
E23A/D25A/S93W	n.d. / 2.24 / 1.71	1.97	0/9
N33W/Q96V	n.d. / n.d. / n.d.	n.d.	0/9
G24C/Q96H/V97S	1.90 / 1.85 / 1.28	1.68	4/9 (3.15)
E23T/R90I	4.18 / 3.34 / 3.93	3.82	4/9 (3.73)
L27M/Y30I/N51I	4.06 / n.d. / 2.75	3.40	3/9 (3.84)
K50T/S92E/F95E	3.45 / 3.36 / 2.75	3.19	2/9 (3.39)
S26V/Y29I/R90I	n.d. / n.d. / n.d.	n.d.	1/9 (3.17)
Y30Q/K50E/D91Y	0.89 / 1.21 / 0.33	0.81	2/9 (4.44)
Y30W/P54L/S93L	3.89 / n.d. / n.d.	3.89	1/9 (3.62)
S92F/F98E	4.40 / n.d. / n.d.	4.40	0/9
N52R/D91I/S92M	3.32 / 2.93 / 3.38	3.21	3/9 (3.60)
Y29G/G49W	4.22 / 3.16 / 2.90	3.43	4/9 (3.72)
R28C/D91S/Q96T	4.03 / 2.94 / 3.41	3.46	5/9 (4.15)
E23L/Y31N/S92L	1.11 / 0.85 / 0.51	0.82	1/9 (4.26)
G24S/Y31M/R90P	3.39 / 2.80 / 4.01	3.40	3/9 (3.85)
Y30G/S88Y/D91Y	1.49 / 1.52 / 1.26	1.42	3/9 (3.91)
G24T/N52T/S93R	4.74 / 3.33 / n.d.	4.04	4/9 (3.86)
S55C/S93G/F95R	2.47 / 3.54 / 3.02	3.01	1/9 (3.28)
S26Q/D91M/S92R	4.72 / 3.36 / n.d.	4.04	4/9 (3.31)
G49Q/S88V	5.41 / 5.32 / 4.67	5.13	3/9 (4.11)
L27F/N33G/D91W	3.88 / n.d. / 4.06	3.97	1/9 (3.96)
N52P/Q96S	3.22 / 3.63 / 2.70	3.18	5/9 (4.10)

For reference, 4 entries of the list once more:

| changes | replicates, log10 nM | log10 Kd (nM), mean | control signals |
|---|---|---|---|
| S26M/S55P/R90N | 3.00 / 3.52 / 3.81 | 3.44 | 6/9 (3.84) |
| Y30Q/K50E/D91Y | 0.89 / 1.21 / 0.33 | 0.81 | 2/9 (4.44) |
| R53W/P54M | n.d. / 3.46 / n.d. | 3.46 | 1/9 (3.86) |
| K50P/S93W/F98R | 4.43 / 3.99 / 3.44 | 3.95 | 1/9 (5.23) |

For reference, the parent read 2.31 as the reference entry and 2.25 as a member of this library. Nonspecific signal, from three strains lacking the peptide, appeared in 28% of pairings of library AAYL52, centred on 3.91 (5% of these signals below 2.90); values are not corrected for it. The control count says in how many pairings with the empty strains this scFv gave a signal, with their mean in brackets.